Molecular target: T1, Histone deacetylase 8 (Homo sapiens, UniProt Q9BY41)
T1 sequence (Q9BY41 whole entry): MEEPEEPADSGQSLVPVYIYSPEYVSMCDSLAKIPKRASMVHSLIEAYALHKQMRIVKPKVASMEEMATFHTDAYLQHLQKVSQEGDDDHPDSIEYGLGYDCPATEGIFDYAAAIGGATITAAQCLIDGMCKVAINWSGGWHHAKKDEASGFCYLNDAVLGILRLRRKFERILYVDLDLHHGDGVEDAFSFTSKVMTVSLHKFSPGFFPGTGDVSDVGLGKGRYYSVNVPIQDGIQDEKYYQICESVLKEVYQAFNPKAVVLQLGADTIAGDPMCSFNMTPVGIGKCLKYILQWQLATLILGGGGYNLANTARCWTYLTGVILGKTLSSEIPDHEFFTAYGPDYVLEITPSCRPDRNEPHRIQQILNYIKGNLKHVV
Assay: Inhibition of recombinant human full-length C-terminal His-tagged HDAC8 expressed in baculovirus infected Sf9 insect cells using Ac-Leu-Gly-Lys(Tfa)-AMC as substrate measured after 30 mins by fluorescence assay

`O=C(CCCCCCC(=O)Nc1ccccc1)NO` [Zolinza] showed an IC50 of over 1000 nM.

— BindingDB's records for doi:10.1016/j.ejmech.2020.112648 (Shenzhen Technology University, 2020)
